Tested on: EMRSA-15
Format: in vivo, S. aureus
Details: Group 3: Vancomycin 6 mg/kg alone iv; 48 hours
Experimental: Methods: 60 female CD-1 mice (22-24 g) were given 1×10^7 cfu of EMRSA-15 as a 100 μl iv bolus.
All mice were terminated at 48 hours for culture of kidney, liver and spleen.
Results: expressed as log cfu per gram of tissue, unless the majority of mice (>5) were cleared (ie organs were culture-negative). N/A=not applicable. (Table 7)

## CN[C@H](CC(C)C)C(=O)N[C@H]1C(=O)N[C@@H](CC(N)=O)C(=O)N[C@H]2C(=O)N[C@H]3C(=O)N[C@H](C(=O)N[C@H](C(=O)O)c4cc(O)cc(O)c4-c4cc3ccc4O)[C@H](O)c3ccc(c(Cl)c3)Oc3cc2cc(c3O[C@@H]2O[C@H](CO)[C@@H](O)[C@H](O)[C@H]2O[C@H]2C[C@](C)(N)[C@H](O)[C@H](C)O2)Oc2ccc(cc2Cl)[C@H]1O [Vancomycin, vancomycin]
  Spleen Log cfu/g of tissue: 3.63 ± 0.91 Log cfu/g of tissue

— patent US20070202116A1, “Treatment of micro-organism infection” (priority 2001, published 2007)
